pKi: −log10 of the molar value.

This is an account of results in ChEMBL document CHEMBL1129084, “Structure-activity relationships for macrocyclic peptidomimetic inhibitors of HIV-1 protease” (Bioorg Med Chem Lett, 1996).

The target in the assay is Human immunodeficiency virus type 1 protease (Human immunodeficiency virus 1, UniProt Q72874).

What is called pKi is the negative decadic logarithm of the Ki, by convention in mol/L. Low readings indicate a high Ki, high ones a low Ki. In turn, `CC[C@H](C)[C@H](NC(=O)[C@@H]1CCCN1C[C@@H](O)[C@H]1Cc2ccc(cc2)OCCCC(=O)NC(CC(N)=O)C(=O)N1)C(=O)N[C@H](C(N)=O)C(C)C` (stereo partly specified) had a negative-log Ki (pKi) of 6.33.
